The target of this assay is PIP4K2C (Homo sapiens, UniProt Q8TBX8). As to the kind of experiment: HiBiT PIP4K2C degradation assay in MOLT-4 cells (endogenous PIP4K2C C-terminally tagged with HiBiT). The note with it: read-out: HiBIT-degradation MOLT4 PIP4k2C 24 hours DC50; 24 hours incubation, MOLT-4, top concentration 10 micromolar. The source says: Example B-2: HiBiT PIP4K2C degradation assay
Materials: MOLT-4, a human T lymphoblast cell line (see https://www.atcc.org/products/crl-1582, herein incorporated by reference in its entirety), was genetically engineered using CRISPR-Cas9 by Synthego Corporation (Redwood City, CA) to C-terminally tag endogenous PIP4K2C with HiBiT peptide. Following clonal selection, genotype was confirmed by Sanger sequencing. MO LT-4 were maintained using RPMI-1640 medium from Gibco (Grand Island, NY, catalog number 11875-085) supplemented with 10% fetal bovine serum (FBS) from VWR (Philadelphia, PA, catalog number 97068-085). For HiBiT assays the cells were resuspended in RPMI-1640 medium without phenol read from Gibco (Grand Island, NY, catalog number 11835-030) supplemented with 10% FBS. Nano-Glo® HiBiT Lytic Assay System was purchased from Promega (Madison, WI, Catalog number N3030). Cell culture flasks and 384-well microplates were purchased from Corning (Glendale, AZ).
To study PIP4K2C degradation, 384-well plates were plated with a 10-point dose response curve, 3-fold dilution, in duplicate with a top starting concentration of 10 micromolar. Subsequently 22,500 cells were added to each well and incubated at 37 C in 5% C02 for 24 hours or 6 hours. […] Luminescence was measured with a PHERAstar FSX plate reader (BMG Labtech, Cary, NC). […]

Sequences of proteins named here, by UniProt entry; tags and fusion partners are left off.
UniProt Q8TBX8, whole entry: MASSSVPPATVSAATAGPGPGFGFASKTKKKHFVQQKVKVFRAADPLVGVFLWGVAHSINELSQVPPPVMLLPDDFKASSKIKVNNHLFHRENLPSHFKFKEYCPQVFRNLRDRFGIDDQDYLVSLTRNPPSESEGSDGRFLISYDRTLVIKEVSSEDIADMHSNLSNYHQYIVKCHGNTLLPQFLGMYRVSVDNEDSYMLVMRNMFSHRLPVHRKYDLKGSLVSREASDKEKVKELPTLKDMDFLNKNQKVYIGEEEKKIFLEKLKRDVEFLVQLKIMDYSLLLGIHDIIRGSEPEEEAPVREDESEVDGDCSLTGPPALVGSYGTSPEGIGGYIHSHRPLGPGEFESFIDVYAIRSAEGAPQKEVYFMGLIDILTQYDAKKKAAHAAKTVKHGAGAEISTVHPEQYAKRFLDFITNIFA

SMILES strings stand for the structures.

As a reminder, the DC50 is the concentration giving 50% degradation. `Cn1nc(C2CCC(=O)NC2=O)c2ccc(C3CCN([C@H]4CC[C@H](CNC(=O)[C@H]5CCC[C@@H](Nc6ncc(F)c(-c7cccc(-n8ccccc8=O)c7)n6)C5)CC4)CC3)cc21` (relative stereo): the DC50 was less than 500 nM.

Consider `O=C1CCC(n2c(=O)oc3cc(C4CCN(CCC5CCN(C(=O)[C@H]6CCC[C@@H](Nc7ncc(F)c(-c8cccc(-n9ccccc9=O)c8)n7)C6)CC5)CC4)ccc32)C(=O)N1` (relative stereo), for which the DC50 is less than 500 nM.

These data come from patent US20260355196A1, “INHIBITORS AND DEGRADERS OF PIP4K PROTEIN” (Larkspur Biosciences, Inc., priority 2023, published 2026).
